This is a selection; strong and weak results do not stand in their true shares. Calls of active or inactive are those of the source. Cut-off read from the data, not from the text of the source: active = activation above about 12%; inactive = the rest.

A short description of the assay: calcium activation in Ga16-expressing cells, counter-screen for TAAR1 antagonist project, cell-based, fluorescence (AID 651953).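 Note: 0% = vehicle wells and 100% = saturating stimulus response.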 Particulars: agonist counterscreen, at 3 µM, active compounds read high. On the technique in general: Counterscreens check selectivity or assay interference.
As to `Cc1ccccc1OP(=O)(Nc1ccccn1)Oc1ccccc1C`, the activation is inactive: 8.93%.

Values taken from PubChem BioAssay AID651953 (The Scripps Research Institute Molecular Screening Center, 2012).
